Amino acid sequences for entries named in this document (tags omitted).
UniProt P30926, whole entry: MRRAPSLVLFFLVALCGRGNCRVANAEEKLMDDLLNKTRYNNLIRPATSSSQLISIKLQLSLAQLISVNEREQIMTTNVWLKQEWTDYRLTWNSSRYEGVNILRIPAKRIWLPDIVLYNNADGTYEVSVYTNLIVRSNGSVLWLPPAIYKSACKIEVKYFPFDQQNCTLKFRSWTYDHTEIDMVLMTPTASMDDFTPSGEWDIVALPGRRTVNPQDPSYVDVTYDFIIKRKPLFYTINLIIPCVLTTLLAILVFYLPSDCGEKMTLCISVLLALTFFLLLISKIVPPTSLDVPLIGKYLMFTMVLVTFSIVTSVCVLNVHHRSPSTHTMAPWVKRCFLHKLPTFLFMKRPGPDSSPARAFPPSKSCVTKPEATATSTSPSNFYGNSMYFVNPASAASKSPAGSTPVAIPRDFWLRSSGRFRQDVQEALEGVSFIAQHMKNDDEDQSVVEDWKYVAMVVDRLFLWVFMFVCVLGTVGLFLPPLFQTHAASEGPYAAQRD
UniProt P32297, whole entry: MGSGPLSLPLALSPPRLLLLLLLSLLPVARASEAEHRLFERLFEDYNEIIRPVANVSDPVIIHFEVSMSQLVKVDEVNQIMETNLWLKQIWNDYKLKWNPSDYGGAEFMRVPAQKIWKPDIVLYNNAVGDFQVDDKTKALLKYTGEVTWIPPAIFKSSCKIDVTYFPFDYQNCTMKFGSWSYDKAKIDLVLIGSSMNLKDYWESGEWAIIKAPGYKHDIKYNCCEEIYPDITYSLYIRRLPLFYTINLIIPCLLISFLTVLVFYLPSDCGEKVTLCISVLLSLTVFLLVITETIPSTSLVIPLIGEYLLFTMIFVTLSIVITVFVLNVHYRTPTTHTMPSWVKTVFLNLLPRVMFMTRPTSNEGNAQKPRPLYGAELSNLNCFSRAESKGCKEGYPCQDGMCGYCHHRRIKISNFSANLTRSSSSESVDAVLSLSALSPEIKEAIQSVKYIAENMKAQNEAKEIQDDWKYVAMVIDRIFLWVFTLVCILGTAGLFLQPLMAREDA

In ChEMBL document CHEMBL5325394, “What We Have Gained from Ibogaine: α3β4 Nicotinic Acetylcholine Receptor Inhibitors as Treatments for Substance Use Disorders” (J Med Chem, 2023):

Columns and labels:
[1] = biological target: T1, Neuronal acetylcholine receptor; alpha3/beta4 (Homo sapiens, UniProt P30926+P32297); test: Antagonist activity at alpha3beta4 nAChR (unknown origin); assay type: protein-complex assay
[2] = biological target: T1, Neuronal acetylcholine receptor; alpha3/beta4; test: Antagonist activity at alpha3beta4 nAChRs (unknown origin) assessed as inhibition constant; assay type: protein-complex assay

Structure (SMILES)	IC50 [1] [nM]	Ki [2] [nM]
CN1C2CCCC1CC(Nc1ccccc1Br)C2 (configuration not stated)	30	
CNC1(C)[C@H]2CC[C@H](C2)C1(C)C (mixture of isomers)		600
